Data from paper PMC5789083, “Mechanisms driving the antibacterial and antibiofilm properties of Hp1404 and its analogue peptides against multidrug-resistant Pseudomonas aeruginosa” (Scientific Reports, 2018).

Tested on: HaCaT cells
Test: Cytotoxicity, MTT assay
Format: cell-based, human
Conditions: 1.56 µM, 24 h
Description: We used the MTT assay to evaluate the toxicity of the peptides toward human skin epithelial cells (HaCaT) as previously described. Briefly, HaCaT cells were seeded at a density of 2 × 10^4 cells per well in 96-well microtiter plates in Dulbecco’s modified Eagle’s medium (DMEM) containing 10% foetal bovine serum (FBS) at 37 °C under 5% CO2 atmosphere. The next day, peptides were added to each well at various final concentrations (higher concentration of 200 µM). After 24 h incubation, culture supernatants were removed. 0.5 mg/mL MTT was added to each well, and the plates were incubated for 4 h at 37 °C. The medium was replaced by dimethyl sulfoxide (DMSO) to dissolve the formazan crystals formed in the wells. The absorbance at 570 nm was measured using a Versa-Max microplate ELISA reader (Molecular Devices). The viability rate was calculated using the following formula: Cell viability (%) = (absorbance of treated sample)/(absorbance of control) × 100.

CC[C@H](C)[C@H](NC(=O)CN)C(=O)NCC(=O)N[C@@H](C)C(=O)N[C@H](C(=O)N[C@@H](CC(C)C)C(=O)N[C@@H](CCCCN)C(=O)N[C@H](C(=O)N[C@@H](CC(C)C)C(=O)N[C@H](C(=O)N[C@H](C(=O)NCC(=O)N[C@@H](CC(C)C)C(=O)N1CCC[C@H]1C(=O)N[C@@H](C)C(=O)N[C@@H](CC(C)C)C(=O)N[C@H](C(=O)N[C@@H](CO)C(=O)N[C@@H](Cc1c[nH]c2ccccc12)C(=O)N[C@H](C(=O)N[C@@H](CCCCN)C(=O)N[C@@H](CCCNC(=N)N)C(=O)N[C@@H](CCCCN)C(=O)N[C@@H](CCCNC(=N)N)C(=O)N[C@@H](CCC(N)=O)C(=O)N[C@@H](CCC(N)=O)C(N)=O)[C@@H](C)CC)[C@@H](C)CC)[C@@H](C)O)[C@@H](C)O)C(C)C)C(C)C [Melittin, reference compound]
survival rate of HaCaT cells: 11.29%
